Experimental data from patent US20240141330A1, “METHODS AND COMPOSITIONS FOR MUTAGENESIS SCREENING IN MAMMALIAN CELLS” (THE BOARD OF REGENTS OF THE UNIVERSITY OF TEXAS SYSTEM, priority 2021, published 2024).

Test system: human NSCLC cells
Format: cell-based

COc1cc2ncnc(Nc3ccc(F)c(Cl)c3)c2cc1OCCCN1CCOCC1 [Gefitinib]
Effect on transduced NSCLC cells: killed most of the NSCLC cells; also recorded: some surviving cells

Entries after “also recorded” stand apart in the source; their conditions may differ.
